## Cyclic peptide permeability, from CycPeptMPDB

Collected by the curators of CycPeptMPDB (Li et al. 2023) from Kelly et al. 2021, doi:10.1021/jacs.0c06115.

PAMPA measures passive passage through an artificial lipid membrane. P is given in units of 10^-6 cm/s (from log10 values with two decimals); larger means faster passage.

* CC(=O)N1CCC[C@H]1C(=O)N(C)[C@H](CC(C)C)C(=O)N[C@@H]1C(=O)N(C)[C@H](CC(C)C)C(=O)N[C@@H](CC(C)C)C(=O)N[C@H](CC(C)C)C(=O)N(C)[C@H](C)C(=O)N[C@@H](CC(C)C)C(=O)N2CCC[C@H]2C(=O)O[C@@H]1C: PAMPA 7.9 × 10^-6 cm/s
* CC(=O)N1CCC[C@@H]1C(=O)N(C)[C@@H](CC(C)C)C(=O)N[C@@H]1C(=O)N(C)[C@H](CC(C)C)C(=O)N[C@H](CC(C)C)C(=O)N(C)[C@H](CC(C)C)C(=O)N(C)[C@H](C)C(=O)N[C@H](CC(C)C)C(=O)N2CCC[C@@H]2C(=O)O[C@@H]1C: PAMPA 3.5 × 10^-6 cm/s
* CC(=O)N1CCC[C@H]1C(=O)N[C@@H]1C(=O)N(C)[C@H](CC(C)C)C(=O)N[C@H](CC(C)C)C(=O)N[C@H](CC(C)C)C(=O)N[C@H](CC(C)C)C(=O)N[C@@H](C)C(=O)N[C@@H](CC(C)C)C(=O)N2CCC[C@@H]2C(=O)O[C@@H]1C: PAMPA 0.014 × 10^-6 cm/s
* CC(=O)N1CCC[C@H]1C(=O)N(C)[C@H](CC(C)C)C(=O)N[C@@H]1C(=O)N[C@H](CC(C)C)C(=O)N(C)[C@@H](CC(C)C)C(=O)N(C)[C@H](CC(C)C)C(=O)N[C@@H](C)C(=O)N[C@@H](CC(C)C)C(=O)N2CCC[C@@H]2C(=O)O[C@@H]1C: PAMPA 5.1 × 10^-6 cm/s
* CC(=O)N1CCC[C@H]1C(=O)N(C)[C@@H](CC(C)C)C(=O)N[C@@H]1C(=O)N[C@H](CC(C)C)C(=O)N[C@H](CC(C)C)C(=O)N[C@H](CC(C)C)C(=O)N[C@H](C)C(=O)N[C@H](CC(C)C)C(=O)N2CCC[C@@H]2C(=O)O[C@@H]1C: PAMPA 0.001 × 10^-6 cm/s
* CC(=O)N1CCC[C@@H]1C(=O)N(C)[C@@H](CC(C)C)C(=O)N[C@@H]1C(=O)N[C@H](CC(C)C)C(=O)N[C@@H](CC(C)C)C(=O)N[C@@H](CC(C)C)C(=O)N(C)[C@H](C)C(=O)N[C@H](CC(C)C)C(=O)N2CCC[C@@H]2C(=O)O[C@@H]1C: PAMPA 3.4 × 10^-6 cm/s
* CC(=O)N1CCC[C@@H]1C(=O)N(C)[C@@H](CC(C)C)C(=O)N[C@@H]1C(=O)N(C)[C@H](CC(C)C)C(=O)N[C@H](CC(C)C)C(=O)N(C)[C@@H](CC(C)C)C(=O)N(C)[C@@H](C)C(=O)N[C@@H](CC(C)C)C(=O)N2CCC[C@H]2C(=O)O[C@@H]1C: PAMPA 4.4 × 10^-6 cm/s
* CC(=O)N1CCC[C@@H]1C(=O)N(C)[C@@H](CC(C)C)C(=O)N[C@@H]1C(=O)N[C@H](CC(C)C)C(=O)N(C)[C@H](CC(C)C)C(=O)N(C)[C@@H](CC(C)C)C(=O)N(C)[C@@H](C)C(=O)N[C@@H](CC(C)C)C(=O)N2CCC[C@@H]2C(=O)O[C@@H]1C: PAMPA 5.2 × 10^-6 cm/s
* CC(=O)N1CCC[C@H]1C(=O)N(C)[C@H](CC(C)C)C(=O)N[C@@H]1C(=O)N[C@@H](CC(C)C)C(=O)N[C@H](CC(C)C)C(=O)N(C)[C@H](CC(C)C)C(=O)N(C)[C@@H](C)C(=O)N[C@@H](CC(C)C)C(=O)N2CCC[C@@H]2C(=O)O[C@@H]1C: PAMPA 4.8 × 10^-6 cm/s
* CC(=O)N1CCC[C@@H]1C(=O)N(C)[C@@H](CC(C)C)C(=O)N[C@@H]1C(=O)N(C)[C@@H](CC(C)C)C(=O)N(C)[C@H](CC(C)C)C(=O)N(C)[C@@H](CC(C)C)C(=O)N(C)[C@H](C)C(=O)N[C@@H](CC(C)C)C(=O)N2CCC[C@H]2C(=O)O[C@@H]1C: PAMPA 3.1 × 10^-6 cm/s
* CC(=O)N1CCC[C@H]1C(=O)N(C)[C@@H](CC(C)C)C(=O)N[C@@H]1C(=O)N[C@H](CC(C)C)C(=O)N[C@H](CC(C)C)C(=O)N(C)[C@H](CC(C)C)C(=O)N[C@@H](C)C(=O)N[C@H](CC(C)C)C(=O)N2CCC[C@H]2C(=O)O[C@@H]1C: PAMPA 3.2 × 10^-6 cm/s
* CC(=O)N1CCC[C@@H]1C(=O)N(C)[C@H](CC(C)C)C(=O)N[C@@H]1C(=O)N[C@@H](CC(C)C)C(=O)N[C@H](CC(C)C)C(=O)N[C@H](CC(C)C)C(=O)N[C@@H](C)C(=O)N[C@H](CC(C)C)C(=O)N2CCC[C@H]2C(=O)O[C@@H]1C: PAMPA 0.079 × 10^-6 cm/s
* CC(=O)N1CCC[C@@H]1C(=O)N(C)[C@@H](CC(C)C)C(=O)N[C@@H]1C(=O)N(C)[C@H](CC(C)C)C(=O)N(C)[C@H](CC(C)C)C(=O)N(C)[C@@H](CC(C)C)C(=O)N(C)[C@H](C)C(=O)N[C@H](CC(C)C)C(=O)N2CCC[C@H]2C(=O)O[C@@H]1C: PAMPA 6.3 × 10^-6 cm/s

2 of these entries, quoted again:

* CC(=O)N1CCC[C@@H]1C(=O)N(C)[C@@H](CC(C)C)C(=O)N[C@@H]1C(=O)N(C)[C@H](CC(C)C)C(=O)N(C)[C@H](CC(C)C)C(=O)N(C)[C@@H](CC(C)C)C(=O)N(C)[C@H](C)C(=O)N[C@H](CC(C)C)C(=O)N2CCC[C@H]2C(=O)O[C@@H]1C: PAMPA 6.3 × 10^-6 cm/s
* CC(=O)N1CCC[C@H]1C(=O)N(C)[C@H](CC(C)C)C(=O)N[C@@H]1C(=O)N[C@@H](CC(C)C)C(=O)N[C@H](CC(C)C)C(=O)N(C)[C@H](CC(C)C)C(=O)N(C)[C@@H](C)C(=O)N[C@@H](CC(C)C)C(=O)N2CCC[C@@H]2C(=O)O[C@@H]1C: PAMPA 4.8 × 10^-6 cm/s

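Conditions beyond the assay type are not listed; see the original paper. The list need not hold all peptides of the study. Entries at the database's floor value (log10 P of -10) are not listed.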